Test [1] has as its target T1, P2X purinoceptor 4 (Homo sapiens, UniProt Q99571).
T1 sequence (Q99571 whole entry): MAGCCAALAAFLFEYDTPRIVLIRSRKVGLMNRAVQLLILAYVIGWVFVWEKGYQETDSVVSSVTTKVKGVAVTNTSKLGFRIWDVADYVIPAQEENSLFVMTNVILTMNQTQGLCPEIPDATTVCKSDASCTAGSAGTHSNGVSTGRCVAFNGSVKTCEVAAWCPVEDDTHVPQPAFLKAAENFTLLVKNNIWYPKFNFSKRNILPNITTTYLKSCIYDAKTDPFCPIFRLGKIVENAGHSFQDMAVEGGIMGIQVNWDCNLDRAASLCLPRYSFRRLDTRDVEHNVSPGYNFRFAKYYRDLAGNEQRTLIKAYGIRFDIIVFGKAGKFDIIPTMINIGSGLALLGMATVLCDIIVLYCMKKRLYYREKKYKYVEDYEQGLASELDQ
Put plainly: Antagonist activity at human P2X4R transfected in 1321N1 cells. Type of test: cell-based.

In test [2] the target is T1, P2X purinoceptor 4. Briefly: Antagonist activity at human P2X4R transfected in HEK293 cells. Type of test: cell-based.

From ChEMBL document CHEMBL4414589, “Development of High-Throughput Fluorescent-Based Screens to Accelerate Discovery of P2X Inhibitors from Animal Venoms” (J Nat Prod, 2019) come the findings set out here.

As usually defined, the pIC50 is the negative decadic logarithm of the IC50, by convention in mol/L. The low end stands for a large IC50, the high end for a small IC50.

Molecules are shown by their SMILES. pIC50: −log10 of the molar value.

With `Cc1ccc(S(=O)(=O)N2c3ccccc3Oc3ccccc32)cc1`, the pIC50 was 5.48 in test [1] and 5.85 in test [2].
